Assay results reported in BindingDB's records for 15780631 (Universit&#224, 2005).

Protein sequences, listed by entry. Tags and fused reporters are not part of them.
UniProt P22748, whole entry, looked up: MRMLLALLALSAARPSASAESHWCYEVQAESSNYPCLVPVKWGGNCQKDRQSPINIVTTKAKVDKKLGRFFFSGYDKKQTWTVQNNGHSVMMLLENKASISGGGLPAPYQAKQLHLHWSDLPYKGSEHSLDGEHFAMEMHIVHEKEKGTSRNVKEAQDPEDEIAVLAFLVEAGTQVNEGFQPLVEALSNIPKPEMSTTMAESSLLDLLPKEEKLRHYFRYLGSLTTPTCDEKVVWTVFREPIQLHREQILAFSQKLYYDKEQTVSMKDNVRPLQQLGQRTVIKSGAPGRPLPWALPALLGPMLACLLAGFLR
UniProt P35218, whole entry, looked up: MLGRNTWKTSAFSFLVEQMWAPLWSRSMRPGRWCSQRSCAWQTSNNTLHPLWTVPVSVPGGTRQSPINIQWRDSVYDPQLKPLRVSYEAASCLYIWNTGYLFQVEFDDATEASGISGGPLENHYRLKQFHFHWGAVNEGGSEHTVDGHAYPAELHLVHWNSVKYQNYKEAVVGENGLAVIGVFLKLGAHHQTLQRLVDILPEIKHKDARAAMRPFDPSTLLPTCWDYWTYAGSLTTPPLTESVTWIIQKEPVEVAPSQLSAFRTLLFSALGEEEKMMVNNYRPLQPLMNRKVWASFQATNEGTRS
UniProt P00915, whole entry, looked up: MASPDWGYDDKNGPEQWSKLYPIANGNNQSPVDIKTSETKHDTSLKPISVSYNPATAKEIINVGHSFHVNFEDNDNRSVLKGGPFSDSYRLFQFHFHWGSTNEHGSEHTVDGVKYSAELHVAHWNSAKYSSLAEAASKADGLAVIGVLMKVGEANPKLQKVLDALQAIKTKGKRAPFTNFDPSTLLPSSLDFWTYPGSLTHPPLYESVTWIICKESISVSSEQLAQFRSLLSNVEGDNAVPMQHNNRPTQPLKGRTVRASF

Columns and labels:
Carbonic anhydrase 4 = Carbonic anhydrase 4 (Homo sapiens, UniProt P22748); experiment: Inhibitory constant against human isozymes carbonic anhydrase IV for the CO2 hydration reaction at 20 degree C
Carbonic anhydrase 2 = Carbonic anhydrase 2 (Homo sapiens, UniProt P00918); experiment: Inhibitory constant against human isozymes carbonic anhydrase II for the CO2 hydration reaction at 20 C
[1] = target: Carbonic anhydrase 5A, mitochondrial (Homo sapiens, UniProt P35218); experiment: Inhibitory constant against human isozymes carbonic anhydrase V for the CO2 hydration reaction at 20 C
Carbonic anhydrase 9 = Carbonic anhydrase 9 (Homo sapiens, UniProt Q16790); experiment: Inhibitory constant against human isozymes carbonic anhydrase IX for the CO2 hydration reaction at 20 C
Carbonic anhydrase 1 = Carbonic anhydrase 1 (Homo sapiens, UniProt P00915)

Structure (SMILES)	Ki (Carbonic anhydrase 4)	Ki (Carbonic anhydrase 2)	Ki [1]	Ki (Carbonic anhydrase 9)	Ki (Carbonic anhydrase 1)
N#[C][AuH][C]#N	5360 µM	580 µM	1910 µM	31300 µM	
N#[C][AgH][C]#N	97000 µM	760 µM	1750 µM	330 µM	500 µM
N#[C][CuH][C]#N		560 µM	790 µM	4770 µM	
